# EPAC2 ag = activates human EPAC2 exchange factor. Potency, µM (doses to about 154 µM), for the others: at the top dose activation, actives largely listed as activators. 0.079% of 360,000 active. EPAC2 activation, biochemical qHTS; response scale: 100% = 6.5 mM cAMP response. AID 720711; also: nearly all actives have a fitted effect of over 50% in size
#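 Readout is BODIPY fluorescence (480 nm excitation, 540 nm emission), which falls as labeled GDP is exchanged off Rap1B. EPAC2 at 100 nM acted on 250 nM RAP1B-BODIPY-GDP with 50 uM GDP present.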
# EPAC1 agonist = EPAC1 (human) agonism; EPAC1 agonist qHTS, biochemical assay; response scale: 100% = response to 6.5 mM cAMP; 0.073% of 360,000 active; Potency, µM (top dose mostly 154 µM), for the others: at the highest dose activation, hits mostly activators; AID 720707; O95398; also: nearly all actives have a fitted effect of over 60% in size
#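 EPAC1 100 nM, Rap1B–BODIPY-GDP 250 nM, unlabeled GDP 50 uM; compound titration; 5 min RT; kinetic read ex480/em540 at 5-min intervals ×30 min; data normalized to 6.5 mM cAMP agonist control.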
# Rango complex inh = inhibitors of Rango-importin beta complex formation; 0.031% of 340,000 active; Q14974; Potency, µM (highest dose often 92.2 µM), inactives show at the top dose inhibition of complex formation; AID 540263; Rango CFP/YFP FRET sensor + importin beta, 45 min; calls by dose curve;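 also: 0% = DMSO wells and 100% = buffer wells lacking importin beta; nearly all actives have a fitted effect of over 15% in size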
#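 FRET biosensor Rango (snurportin 1 IBB between N-terminal EYFP and C-terminal Cerulean), 50 nM in PBS/1 mM DTT/0.02% Tween-20/0.1% BSA, preincubated 5 min RT with compound; 0.125 microM importin beta added, 45 min RT, CFP/YFP FRET ratio read.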
# EPAC2 antagonist = antagonists of human EPAC2. Potency, µM (highest dose often 114 µM), without a hit: at the highest dose activity, negative = inhibition, actives largely listed as inhibitors. 0.18% of 360,000 active. EPAC2 GEF exchange of Rap1B-BODIPY-GDP, fluorescence. Q8WZA2; also: % is scaled to controls: 0 for no effect and ±100 for the full control effect; nearly all actives have a fitted effect of over 45% in size
# Rango dissoc inh = inhibition of RanGTP-driven Rango-importin beta dissociation; 0.071% of 340,000 active; Biochemical FRET Rango-importin beta, RanGTP-induced dissociation; O95149+P62826; Potency, µM (series often up to 46.1 µM), for inactives: at the highest dose activity change, negative = inhibition; AID 540253; calls by dose curve; also: % of control where 0% means no effect; nearly all actives have a fitted effect of over 45% in size
#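 Rango (0.1 uM)–importin beta (0.25 uM) complex; RanGTP-RCC1 trigger; 45 min RT; CFP/YFP FRET read.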
# EPAC1 antagonist = blocks human EPAC1 exchange factor. O95398. EPAC1 GEF assay, Rap1b-BODIPY-GDP exchange fluorescence. Potency, µM (titrated, usually from 115 µM), without a hit: at the highest dose activity change, negative = inhibition, most hits filed as inhibitors. 0.14% of 360,000 active. AID 720709;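 also: plate controls were vehicle for no effect and positive control for full effect; nearly all actives have a fitted effect of over 50% in size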
# * marks the source's active call; other numbers are inactive results; ? = inconclusive; / = not tested or not shown. Shown are actives, neighbours in structure and some others; about 0.48% of the full set was active somewhere. Unless noted, calls follow the shape of the dose curve; as a rule, active = well fitted curve in the direction sought with a large enough effect; inconclusive = small, poorly fitted or top-dose-only effect, or another doubt; inactive = no such curve, though single readings can be large; an effect the other way counts as inactive or inconclusive. Potency is read from the fitted curve at half-maximal effect.
# Every second line gives: EPAC2 ag, EPAC1 agonist, Rango complex inh, EPAC2 antagonist, Rango dissoc inh, EPAC1 antagonist
- CCN(CC)c1ccc(/C=N/NC(=O)c2cccc(N3CCCC3=O)c2)cc1
 : 2%, -1%, ?, 5%, 10µM*, -4%
- CCOC(=O)CSc1nc2sc3c(c2c(=O)n1-c1ccccc1)CCN(C(C)C)C3
 : 16%, 4%, ?, -8%, 18µM*, 1%
- O=C1NN(c2ccc(Cl)cc2)C(=O)/C1=C\c1ccc(-c2cccc(C(=O)O)c2)o1
 : 0%, 2%, ?, -3%, -15%, ?
- O=C1NN(c2ccccc2)C(=O)/C1=C\c1ccc(-c2cc([N+](=O)[O-])ccc2O)o1
 : -23%, -6%, 0%, 79µM*, -5%, -4%
- CC(C)CCN1C(=O)c2cccc3c(N)ccc(c23)C1=O
 : ?, 71µM*, ?, 38%, ?, 25%
- Nc1ccc2c3c(cccc13)C(=O)N(c1ccccc1)C2=O
 : 100µM*, 100µM*, ?, 421%, ?, 454%
- Cc1cccc(N2C(=O)c3cccc4c(N(C)CCO)ccc(c34)C2=O)c1
 : 100µM*, 112µM*, ?, 72%, ?, 49%
- Cc1cccc(N2C(=O)c3cccc4c(N)ccc(c34)C2=O)c1
 : 100µM*, 89µM*, ?, 276%, ?, 292%
- O=C(NC1CCCCC1)C(c1ccncc1)n1c(=O)c(-c2cc3ccccc3[nH]2)nc2ccccc21 (stereo unspecified)
 : 11%, 11%, /, ?, /, -10%
- COc1ccccc1C(=O)NCC(=O)N(C)Cc1nc2ccccc2c(=O)[nH]1
 : -1%, 13%, /, -3%, /, -4%
- O=C(O)c1cccc(N2C(=O)c3cccc4c(Cl)ccc(c34)C2=O)c1
 : 1%, 2%, 0%, -32%, ?, -14%
- Nc1cccc(N2C(=O)c3cccc4c(N)ccc(c34)C2=O)c1
 : 89µM*, 100µM*, ?, 152%, ?, 97%
- O=S(=O)(Nc1cccc2nsnc12)c1ccccc1
 : 5%, 9%, 29µM*, -6%, 25%, -14%
- Cc1ccc(S(=O)(=O)N[C@H](CNCc2ccccc2)C(C)C)cc1
 : 3%, 8%, /, -7%, /, 5%
- O=[N+]([O-])c1cc(Cl)ccc1NCCc1ccccn1
 : -3%, -2%, -4%, 56µM*, 18%, -14%
- N#Cc1ccc(NCCc2ccccn2)c([N+](=O)[O-])c1
 : 2%, -7%, 0%, 1%, -2%, 2%
- Cc1cc(C(C)(C)CC(C)(C)C)ccc1OCCOCC[N+](C)(C)Cc1ccccc1
 : 0%, -23%, 65µM*, ?, 8%, -10%
- O=C1Nc2ccccc2-n2nnnc2C1N1CCN(C(=O)c2ccco2)CC1 (stereo unspecified)
 : 9%, 26%, /, 20%, /, -3%
- COc1cc(NC(=O)c2cc(-c3ccccc3)on2)cc(OC)c1OC
 : 6%, 8%, 0%, -3%, -10%, 2%
- COc1cc(NC(=O)c2cc3nc(-c4ccccc4)cc(-c4ccccc4)n3n2)cc(OC)c1OC
 : 18%, 7%, 1%, -15%, 0%, 56µM*

# Reprinted from the part before: 3 entries; new compounds follow.
# Every second line gives: EPAC2 ag, EPAC1 agonist, Rango complex inh, EPAC2 antagonist, Rango dissoc inh, EPAC1 antagonist
- O=C1Nc2ccccc2-n2nnnc2C1N1CCN(C(=O)c2ccco2)CC1 (stereo unspecified)
 : 9%, 26%, /, 20%, /, -3%
- COc1cc(NC(=O)c2cc(-c3ccccc3)on2)cc(OC)c1OC
 : 6%, 8%, 0%, -3%, -10%, 2%
- COc1cc(NC(=O)c2cc3nc(-c4ccccc4)cc(-c4ccccc4)n3n2)cc(OC)c1OC
 : 18%, 7%, 1%, -15%, 0%, 56µM*
- Nc1nc(SCC(=O)Nc2cccc(Oc3ccccc3)c2)n[nH]1
 : 12%, 0%, 3%, 3%, -6%, -23%
- O=C(CSc1ncnc2[nH]ncc12)Nc1cccc(Oc2ccccc2)c1
 : 32µM*, 89µM*, 3%, 3%, -17%, ?
- Cc1ccc(CNC(=O)c2cccc3c2C(=O)c2ccc(N4CCOCC4)cc2S3(=O)=O)cc1
 : -1%, -26%, ?, 44%, ?, -23%
- COCCNC(=O)c1cccc2c1C(=O)c1ccc(N3CCOCC3)cc1S2(=O)=O
 : 7%, 0%, 46µM*, 5%, -6%, -12%
- CC1CCN(c2ccc3c(c2)S(=O)(=O)c2cccc(C(=O)NC[C@@H]4CCCO4)c2C3=O)CC1
 : 112µM*, 7%, ?, 5%, ?, -24%
